Laboratory results from patent publication US20130184280A1, “SUBSTITUTED THIAZOLES AS VEGFR2 KINASE INHIBITORS” (TELIK, INC., priority 2011, published 2013).

Protein sequences, listed by entry. Tags and fused reporters are not part of them. Residues count along the entry.
UniProt P35968, 20-1356 limits assumed: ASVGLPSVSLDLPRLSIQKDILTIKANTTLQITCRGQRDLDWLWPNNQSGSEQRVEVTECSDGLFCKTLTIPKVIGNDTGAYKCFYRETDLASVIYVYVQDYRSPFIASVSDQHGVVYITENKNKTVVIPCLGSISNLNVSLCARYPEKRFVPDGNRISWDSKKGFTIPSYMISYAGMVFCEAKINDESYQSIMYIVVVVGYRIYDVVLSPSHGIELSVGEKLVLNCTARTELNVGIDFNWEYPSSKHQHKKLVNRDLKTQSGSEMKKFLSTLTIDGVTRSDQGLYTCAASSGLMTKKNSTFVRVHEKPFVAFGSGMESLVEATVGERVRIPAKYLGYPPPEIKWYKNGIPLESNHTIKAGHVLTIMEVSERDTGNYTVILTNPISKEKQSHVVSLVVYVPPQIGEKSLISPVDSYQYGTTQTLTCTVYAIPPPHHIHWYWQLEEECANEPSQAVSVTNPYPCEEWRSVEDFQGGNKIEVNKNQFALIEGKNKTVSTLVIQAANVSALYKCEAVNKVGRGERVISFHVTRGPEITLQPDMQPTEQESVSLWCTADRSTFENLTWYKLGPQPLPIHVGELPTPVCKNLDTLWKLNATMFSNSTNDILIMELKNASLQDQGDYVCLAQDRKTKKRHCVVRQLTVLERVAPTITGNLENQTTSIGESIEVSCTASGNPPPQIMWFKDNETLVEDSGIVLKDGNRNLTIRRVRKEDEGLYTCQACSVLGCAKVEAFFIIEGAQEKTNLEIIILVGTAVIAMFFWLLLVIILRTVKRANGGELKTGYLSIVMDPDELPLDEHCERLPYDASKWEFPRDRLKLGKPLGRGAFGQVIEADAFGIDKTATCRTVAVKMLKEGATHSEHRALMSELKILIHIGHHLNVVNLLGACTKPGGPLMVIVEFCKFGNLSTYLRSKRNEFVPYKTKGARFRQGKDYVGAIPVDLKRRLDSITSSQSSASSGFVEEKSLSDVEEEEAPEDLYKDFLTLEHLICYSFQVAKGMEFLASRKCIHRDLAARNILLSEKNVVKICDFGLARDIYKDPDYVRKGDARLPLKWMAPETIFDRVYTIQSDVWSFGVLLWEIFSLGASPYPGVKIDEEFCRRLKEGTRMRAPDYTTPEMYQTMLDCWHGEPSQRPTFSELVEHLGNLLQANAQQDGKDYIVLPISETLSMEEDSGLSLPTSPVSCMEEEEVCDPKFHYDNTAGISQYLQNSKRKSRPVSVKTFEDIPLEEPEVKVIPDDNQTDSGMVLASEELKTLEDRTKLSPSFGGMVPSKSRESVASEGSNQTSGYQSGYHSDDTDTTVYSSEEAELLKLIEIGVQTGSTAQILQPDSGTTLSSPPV

What was measured:
[1] = tested on: HCT116 (human colon carcinoma); assay: In Vitro Cytotoxicity Assay HCT116 (CellTiter-Glo); conditions: read-out: Cytotoxicity HCT116; HCT116 cells, cultured three days
Method: (§1) The cell lines HL60 (human promyelocytic leukemia) and HCT116 (human colon carcinoma) were obtained from the American Type Culture Collection, Manassas, Va., U.S.A. All products were used in accordance with manufacturer's directions. The cytotoxicity assays were conducted in triplicate, in each case with solvent control.
(§2) Log-phase cells were trypsinized, collected by centrifugation, and resuspended in a small volume of fresh medium, and the density of viable cells was determined following Trypan Blue staining Cells were diluted in fresh media, the test compounds (concentrations between 0.1 μM and 200 μM, dissolved in DMSO, 50 μL) added immediately after dilution to achieve a final DMSO concentration of 0.5%, then the suspensions added at 150 μL/well to 96-well plates, and incubated overnight to allow attachment in the case of adherent cells. The cells were cultured for three days (about three doubling times). The cells were then collected by centrifugation, and 100 μL of the culture supernatant was replaced by the CellTiter-Glo reagent. After incubation for 15 minutes at room temperature, the plate was read with a luminometer. […] The table gives cytotoxicity IC50s in μm.

VEGFR2 kinase = VEGFR2 kinase (Homo sapiens, UniProt P35968); assay: In Vitro VEGFR2 Kinase Assay; conditions: read-out: VEGFR2 IC50 (nM) (FP), CSKtide substrate, 60 minutes at room temperature
Method: In Vitro VEGFR2 Kinase Assay
50 ng/well VEGFR2 kinase (from InVitrogen) was mixed in buffer (14.5 μL/well). To this were added, 0.5 μL of the compound of this invention at a concentration of 2.5% in DMSO. After incubatiuon for 5 minutes at room temperature, 5 μL of substrate (CSKtide, 400 nM) and 8 μL ATP were added. The mixture was incubated for 60 minutes at room temperature and 60 uL of binding reagent (beads) was added. After incubation overnight at room temperature, the plate was read with a LJL plate reader.

[2] = tested on: HL60 (human promyelocytic leukemia); assay: In Vitro Cytotoxicity Assay HL60 (CellTiter-Glo); conditions: read-out: Cytotoxicity HL 60; HL 60 cells, cultured three days
Method: as §1, §2

| SMILES | IC50 (VEGFR2 kinase) | IC50 [1] | IC50 [2] |
| --- | --- | --- | --- |
| Cc1ccc(CNC(=O)c2cccc(-c3csc(-c4cncnc4N)n3)c2)cc1 | 900 nM | 10000 nM | – |
| Nc1ncncc1-c1nc(-c2cccc(NC(=O)c3cccc(CN4CCCCC4)c3)c2)cs1 | 500 nM | 1000 nM | 800 nM |
| Nc1ncncc1-c1nc(-c2ccc(NC(=O)Nc3ccc(F)c(C(F)(F)F)c3)cc2)cs1 | – | 7000 nM | – |
| Cc1ccc(C(=O)Nc2cccc(-c3csc(-c4cncnc4N)n3)c2)cn1 | 200 nM | 2000 nM | – |

Further lines, with some results ahead:

| IC50 (VEGFR2 kinase) | SMILES | IC50 [1] | IC50 [2] |
| --- | --- | --- | --- |
| 30 nM | Nc1ncncc1-c1nc(-c2cccc(NC(=O)Nc3cc(Cl)cc(Cl)c3)c2)cs1 | 4000 nM | – |
| 200 nM | Nc1ncncc1-c1nc(-c2cccc(NC(=O)Nc3ccc([N+](=O)[O-])cc3)c2)cs1 | – | – |
